{
  "sequences": {"note": "The chains behind the UniProt entries cited, without tags or fusion partners.", "UniProt Q8NCG7, whole entry": "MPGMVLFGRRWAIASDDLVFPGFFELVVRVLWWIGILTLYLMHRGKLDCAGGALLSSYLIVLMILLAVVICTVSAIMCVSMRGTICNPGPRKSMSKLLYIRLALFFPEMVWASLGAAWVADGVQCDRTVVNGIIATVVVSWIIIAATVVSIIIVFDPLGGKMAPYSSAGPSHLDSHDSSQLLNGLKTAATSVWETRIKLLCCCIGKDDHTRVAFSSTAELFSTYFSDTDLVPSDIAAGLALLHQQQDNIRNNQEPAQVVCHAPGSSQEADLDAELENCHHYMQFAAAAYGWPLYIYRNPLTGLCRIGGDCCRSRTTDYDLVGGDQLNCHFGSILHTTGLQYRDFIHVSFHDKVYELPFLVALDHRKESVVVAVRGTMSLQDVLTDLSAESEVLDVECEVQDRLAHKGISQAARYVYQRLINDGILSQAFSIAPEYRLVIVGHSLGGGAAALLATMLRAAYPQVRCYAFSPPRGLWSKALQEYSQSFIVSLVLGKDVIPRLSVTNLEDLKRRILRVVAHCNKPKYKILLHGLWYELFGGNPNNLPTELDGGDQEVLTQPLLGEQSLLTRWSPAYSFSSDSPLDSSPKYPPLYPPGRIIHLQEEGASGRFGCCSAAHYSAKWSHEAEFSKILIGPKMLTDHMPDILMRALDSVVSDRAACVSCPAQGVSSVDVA"},
  "source": "PubChem BioAssay AID504411",
  "about": "(The Scripps Research Institute Molecular Screening Center, 2011)",
  "note": "The entries are a selection whose mix differs from that of the whole data set. Some tests of the compounds listed are not included; inactive here does not mean inactive elsewhere. Calls of active or inactive are those of the source. Cut-off read from the data, not from the text of the source: active = inhibition above about 34%; inactive = the rest.",
  "data": [
    {"biological_target": "Diacylglycerol lipase-beta (Homo sapiens) (UniProt Q8NCG7)", "assay": "inhibition of human DAGLB hydrolase activity – biochemical, fluorescence, HTS, primary screen (AID 504411);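 note: 0% = enzyme with vehicle and 100% = wells lacking enzyme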", "conditions": "HEK293T DAGLB membrane lysate, EnzChek fluorogenic substrate; at 5.17 µM; hits give high values", "values": [
      {"molecule": "CN(C)C1(CNC(=O)c2ccc(Br)cc2)CCCCC1", "inhibition": "inactive: -3.26%"},
      {"molecule": "COc1cc(C(=O)NCC2(N(C)C)CCCCC2)c([N+](=O)[O-])cc1OC", "inhibition": "inactive: -2.97%"},
      {"molecule": "COc1cccc(C(=O)NCC2(N3CCCCC3)CCCCC2)c1", "inhibition": "inactive: -1.31%"},
      {"molecule": "COc1ccc(Cl)cc1C(=O)NCC1(N(C)C)CCCCC1", "inhibition": "inactive: 0.53%"},
      {"molecule": "O=C(NCC1(N2CCCCC2)CCCCC1)c1cccc(Cl)c1", "inhibition": "inactive: -5.13%"},
      {"molecule": "O=C(OC1CN2CCC1CC2)C(CO)(c1ccccc1)c1ccccc1", "note": "(stereo unspecified)", "inhibition": "inactive: -3.22%"},
      {"molecule": "COc1ccc(Br)c(C(=O)NCC2(N3CCCCC3)CCCCC2)c1", "inhibition": "inactive: 2.93%"},
      {"molecule": "C=C(C)C#CC(O)(C(=O)OC1CCN(C)CC1)c1ccccc1", "note": "(stereo unspecified)", "inhibition": "inactive: 1.21%"},
      {"molecule": "CN(C)c1cccc(C(=O)NCC2(N(C)C)CCCCC2)c1", "inhibition": "inactive: 0.19%"},
      {"molecule": "CC(C)Oc1ccc(C(=O)NCC2(N(C)C)CCCCC2)cc1", "inhibition": "inactive: -0.34%"},
      {"molecule": "O=C(OCCN1CCCC1)C(O)(c1ccccc1)c1ccccc1", "inhibition": "inactive: 1.56%"},
      {"molecule": "O=C(NCC1(N2CCCCC2)CCCCC1)c1cc([N+](=O)[O-])ccc1Cl", "inhibition": "inactive: -0.24%"},
      {"molecule": "CN1[C@@H]2CC[C@H]1CC(OC(=O)C(O)(c1ccccc1)c1ccccc1)C2", "note": "(stereo partly specified)", "inhibition": "inactive: 0.23%"},
      {"molecule": "CC(C)N1C(=O)CC2(CCN(CCOC(=O)C(O)(c3ccccc3)c3ccccc3)CC2)C1=O", "inhibition": "inactive: -2.38%"},
      {"molecule": "CCN(CC)CC(C)C(C)OC(=O)C(O)(c1ccccc1)c1ccccc1", "note": "(stereo unspecified)", "inhibition": "inactive: 0.66%"},
      {"molecule": "COc1cc(SC)ccc1C(=O)NCC1(N(C)C)CCCCC1", "inhibition": "inactive: -2.98%"},
      {"molecule": "Cc1ccc(C(=O)NCC2(N3CCCCC3)CCCCC2)cc1", "inhibition": "inactive: 0.53%"},
      {"molecule": "Cc1ccccc1C(=O)NCC1(N2CCCCC2)CCCCC1", "inhibition": "inactive: -5.26%"},
      {"molecule": "CN(C)c1ccc(C(=O)NCC2(N(C)C)CCCCC2)cc1", "inhibition": "inactive: 0.23%"},
      {"molecule": "CN(C)C1CCCC1OC(=O)C(O)(c1ccccc1)c1ccccc1", "note": "(stereo unspecified)", "inhibition": "inactive: 0.77%"},
      {"molecule": "C=CCN1CCN(CCOC(=O)C(O)(c2ccccc2)c2ccccc2)CC1", "inhibition": "inactive: -1.35%"},
      {"molecule": "O=C(NCC1(N2CCCCC2)CCCCC1)c1cc(F)c(F)cc1Cl", "inhibition": "inactive: 1.93%"},
      {"molecule": "CCN1CCCC(OC(=O)C2(O)c3ccccc3C=Cc3ccccc32)C1", "note": "(stereo unspecified)", "inhibition": "inactive: -0.23%"},
      {"molecule": "Cc1cc(C(=O)NCC2(N3CCCCC3)CCCCC2)ccc1[N+](=O)[O-]", "inhibition": "inactive: -1.29%"},
      {"molecule": "O=C(NCC1(N2CCCCC2)CCCCC1)c1cccc(Br)c1", "inhibition": "inactive: 0.83%"},
      {"molecule": "COc1ccc(C(=O)NCC2(N(C)C)CCCCC2)cc1", "inhibition": "inactive: -4.79%"}
    ]}
  ]
}
